The values below come from PubChem BioAssay AID1645851 (National Center for Advancing Translational Sciences (NCATS), 2021).

Sequences of proteins named here, by UniProt entry; tags and fusion partners are left off.
UniProt Q92551, whole entry: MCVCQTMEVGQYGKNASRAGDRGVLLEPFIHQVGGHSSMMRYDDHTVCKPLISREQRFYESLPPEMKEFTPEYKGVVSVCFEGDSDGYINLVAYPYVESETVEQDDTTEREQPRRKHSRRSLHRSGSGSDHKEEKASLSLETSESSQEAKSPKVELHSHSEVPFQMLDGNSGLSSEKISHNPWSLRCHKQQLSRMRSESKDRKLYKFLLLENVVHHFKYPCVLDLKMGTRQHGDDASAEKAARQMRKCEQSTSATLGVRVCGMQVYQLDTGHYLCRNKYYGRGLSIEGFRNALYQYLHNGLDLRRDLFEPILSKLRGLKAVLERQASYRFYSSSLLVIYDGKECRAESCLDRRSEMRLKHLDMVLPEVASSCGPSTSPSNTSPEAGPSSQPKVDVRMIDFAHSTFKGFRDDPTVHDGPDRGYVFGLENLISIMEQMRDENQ

The list shows a part of the results, in another mix than the full data. Some tests of the compounds listed are not included; inactive here does not mean inactive elsewhere. Active and inactive are the calls of the source. Rule as the data show it: active = activity change below about -25%; inactive = the rest.
% is scaled to controls: 0 for no effect and ±100 for the full control effect.

The target of this assay is Inositol hexakisphosphate kinase 1 (Homo sapiens) (UniProt Q92551). Description: Primary qHTS assay for small molecule inhibitors of Inositol hexaphosphate kinase 1 (IP6K1). Also: series mostly up to about 58 µM. To be noted: ADP-Glo luminescence, 2 h, stronger effect = lower value. From the text: Assay Provider: Huijun Wei, M.S., Ph.D. School of Medicine, Johns Hopkins University, Baltimore, MD Inositol hexakisphosphate kinases (IP6Ks) catalyze pyrophosphorylation of inositol hexakisphosphate (IP6) into inositol 5-diphospho-1,2,3,4,6-pentakisphosphate (IP7), which is involved in numerous areas of cell physiology including glucose homeostasis, blood coagulation and neurological development. Inhibition of IP6Ks may be effective for the treatment of Type II diabetes, thrombosis, and psychiatric disorders. We performed a quantitative high throughput screen (qHTS) of 158,410 compounds for IP6K1 inhibitors using ankinase activity ADP-Glo Max assay. […] Medicinal chemistry SAR efforts in three chemical series identified potent IP6K1 inhibitors, which were further validated in an orthogonal LC-MS IP7 analysis.
PROTOCOL TABLE SEQUENCE No. (e.g., 1, 2, 3, etc.); […] (e.g., Cells, Incubation, Reagent, etc.); VALUE and DESCRIPTION. 1. Reagent, 3 uL of 1.3 mM ATP and 130 uM IP6 mixture in assay buffer was dispensed to a white, 1536-well assay plate. 2. Compound, 23 nL of compounds of the top two doses (57.5 uM and 19.1 uM final concentration) of the libraries were dispensed into the mixture using the Kalypsis pintool. 3. Reagent, 1 uL of 2.4 uM IP6K1 was dispensed to the assay plates. 4. Incubation, 2 hr incubation at room temperature. 5. Reagent, 2 uL of ADP-Glo reagent was added to the wells. 6. Incubation, 1 hr incubation at room temperature. 7. Reagent, 4 uL or ADP-Glo substate was added to the wells. 8. Incubation, 45 min incubation at room temperature. 9. Detection, luminescence signal was detected using the ViewLux microplate imager (PerkinElmer).
Turning to `CN(C)C1(CNC(=O)c2cccc(Cl)c2)CCCCC1`, the activity change was inactive: 6.17%. As for `CN(C)C1(CNC(=O)c2ccccc2F)CCCCC1`, the figure is inactive: -7.76%. For the compound `CCOc1cccc(C(=O)NCC2(N(C)C)CCCCC2)c1`, the activity change is inactive: -2.32%. In the case of `CN(C)C1(CNC(=O)c2ccccc2[N+](=O)[O-])CCCCC1` it was inactive: 12.4%. In the case of `CCCCOc1ccccc1C(=O)NCC1(N(C)C)CCCCC1` it was inactive: 19%; in that of `COc1ccc(C(=O)NCC2(N(C)C)CCCCC2)cc1Cl`, inactive: 22.1%; in that of `Cc1cccc(C(=O)NCC2(N(C)C)CCCCC2)c1`, inactive: -7.42%. In the case of `COc1cc(C(=O)NCC2(N(C)C)CCCCC2)cc(OC)c1OC` it was inactive: 15.3%; in that of `CC(C)Oc1ccc(C(=O)NCC2(N(C)C)CCCCC2)cc1`, inactive: -23.1%; in that of `COc1cccc(C(=O)NCC2(N3CCOCC3)CCCCC2)c1`, inactive: 1.58%. On to `CC(C)COc1ccc(C(=O)NCC2(N(C)C)CCCCC2)cc1`, for which the activity change was inactive: 13.5%.
